Test system: HUVECs
Assay: Endothelial cell tube formation assay
Settings: 10 μM

Which “Antiangiogenic activity in the tube formation assay” value does the source give for `O=C1CCC(NC(=O)c2cc(F)c(F)c(F)c2F)C(=O)N1` (stereo not shown) [Compound 6] here?
The value was “Neither 5 and 6, in accordance with previous investigations,[13] nor the new compounds 9–19 demonstrated significant antiangiogenic activity”.
